Experimental data published in paper PMC3479967, “Drug-Drug Interactions Potential of Icariin and Its Intestinal Metabolites via Inhibition of Intestinal UDP-Glucuronosyltransferases” (Evidence-based Complementary and Alternative Medicine : eCAM, 2012).

Legend:
UGT1A10 = biological target: T1, UGT1A10 (Homo sapiens, UniProt Q9HAW8); test: Inhibition of recombinant UGT1A10 activity (4-MU glucuronidation); details: read-out: IC50 for inhibition of UGT1A10 activity; recombinant human UGT1A10, 80 μM 4-MU, mean ± SD
T1 sequence (Q9HAW8 26-530): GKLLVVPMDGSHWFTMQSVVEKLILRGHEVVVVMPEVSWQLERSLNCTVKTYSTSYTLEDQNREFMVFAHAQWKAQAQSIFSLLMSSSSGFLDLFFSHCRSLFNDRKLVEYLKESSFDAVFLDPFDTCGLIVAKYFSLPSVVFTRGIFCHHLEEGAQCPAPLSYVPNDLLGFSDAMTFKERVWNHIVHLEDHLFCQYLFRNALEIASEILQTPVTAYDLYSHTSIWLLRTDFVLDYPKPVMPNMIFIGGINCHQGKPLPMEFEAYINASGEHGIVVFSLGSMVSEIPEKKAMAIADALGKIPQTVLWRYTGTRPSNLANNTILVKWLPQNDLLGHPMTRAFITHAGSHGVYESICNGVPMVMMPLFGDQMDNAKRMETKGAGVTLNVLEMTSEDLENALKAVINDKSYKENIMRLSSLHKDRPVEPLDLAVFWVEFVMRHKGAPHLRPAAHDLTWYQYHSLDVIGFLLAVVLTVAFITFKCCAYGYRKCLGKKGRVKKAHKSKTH
Method: (§1) A panel of recombinant human UGT supersomes (UGT1A1, UGT1A3, UGT1A4, UGT1A6, UGT1A7, UGT1A8, UGT1A9, UGT1A10, UGT2B4, UGT2B7, UGT2B15, and UGT2B17) expressed in baculovirus-infected insect cells were purchased from BD Gentest Corp. (Woburn, MA, USA).
(§2) 4-MU, a nonselective substrate of UGTs, was used as probe substrate for all UGTs except UGT1A4. Incubations with each individual enzyme were conducted using conditions previously described. There was a 5 min preincubation step at 37°C before the reaction was started by addition of UDPGA. The incubation mixtures were then centrifuged at 20,500 ×g for 15 min to obtain the supernatant. Aliquots (20 μL) were then analyzed by HPLC. The HPLC system (SHIMADZU, Kyoto, Japan) consisted of an SCL-10A system controller, two LC-10AT pumps, a SIL-10A auto injector, and a SPD-10AVP UV detector. Chromatographic separation was achieved using a Kromasil ODS column (4.6 × 150 mm I.D., 5 μm particle size) at a flow rate of 1 mL/min and UV detection at 316 nm. The mobile phase consisted of 10 mM KH2PO4, pH 2.7 (A) and acetonitrile (B). […]
(§3) Inhibition data from experiments were graphically represented by Dixon plots. K i values were calculated by nonlinear regression using the equations for competitive inhibition (1), noncompetitive inhibition (2), or mixed inhibition (3), [22] […]

UGT2B15 = biological target: T2, UGT2B15 (Homo sapiens, UniProt P54855); test: Inhibition of recombinant UGT2B15 activity (4-MU glucuronidation); details: read-out: IC50 for inhibition of UGT2B15 activity; recombinant human UGT2B15, 250 μM 4-MU, mean ± SD
T2 sequence (P54855 24-530): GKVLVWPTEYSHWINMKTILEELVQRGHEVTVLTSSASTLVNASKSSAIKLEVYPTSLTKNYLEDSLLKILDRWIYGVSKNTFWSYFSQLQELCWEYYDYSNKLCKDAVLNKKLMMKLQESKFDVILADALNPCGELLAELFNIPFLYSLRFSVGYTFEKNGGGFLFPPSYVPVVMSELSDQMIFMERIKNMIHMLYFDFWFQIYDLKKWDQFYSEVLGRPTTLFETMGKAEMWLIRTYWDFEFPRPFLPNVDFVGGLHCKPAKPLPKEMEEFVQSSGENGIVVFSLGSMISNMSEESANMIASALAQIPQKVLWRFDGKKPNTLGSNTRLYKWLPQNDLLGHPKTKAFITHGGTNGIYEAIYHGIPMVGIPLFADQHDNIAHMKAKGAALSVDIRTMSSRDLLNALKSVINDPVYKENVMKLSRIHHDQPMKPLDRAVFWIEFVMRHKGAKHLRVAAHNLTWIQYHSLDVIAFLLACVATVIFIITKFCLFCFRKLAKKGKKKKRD
Method: as §1, §2, §3

Icariside II
IC50 (UGT1A10): > 100 µM
IC50 (UGT2B15): > 100 µM
